Test [1] deals with T1, N-terminal Xaa-Pro-Lys N-methyltransferase 1 (Homo sapiens) (UniProt Q9BV86).
T1 sequence (whole entry): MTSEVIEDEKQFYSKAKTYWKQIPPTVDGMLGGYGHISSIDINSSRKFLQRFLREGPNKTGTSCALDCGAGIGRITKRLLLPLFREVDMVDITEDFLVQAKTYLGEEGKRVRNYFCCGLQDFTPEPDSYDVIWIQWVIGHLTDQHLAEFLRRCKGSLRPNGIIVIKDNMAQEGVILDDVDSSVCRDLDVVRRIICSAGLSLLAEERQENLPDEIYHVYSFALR
Put plainly: Inhibition of NTMT1 (unknown origin) pre-incubated for 120 mins before addition of fixed GPKRIA peptide substrate in presence of 6 to 25 times Km concentrations of SAM by SAHH coupled fluorescence assay relative to control.

Test [2] addresses T1, N-terminal Xaa-Pro-Lys N-methyltransferase 1 (Homo sapiens). As to the kind of experiment: Inhibition of NTMT1 (unknown origin) assessed as residual enzyme activity level at => 0.3 uM pre-incubated for 120 mins before addition of 50 times Km concentrations of GPKRIA peptide substrate in presence of fixed concentration of SAM by SAHH coupled fluorescence assay relative to control.

For test [3] the target is unchanged. Put plainly: Inhibition of NTMT1 (unknown origin) assessed as residual enzyme activity level at => 0.3 uM pre-incubated for 120 mins before addition of 6 to 12 times Km concentrations of GPKRIA peptide substrate in presence of fixed concentration of SAM by SAHH coupled fluorescence assay relative to control.
Test [4] shares this target. As to the kind of experiment: Inhibition of NTMT1 (unknown origin) pre-incubated for 120 mins before addition of 6 to 12 times Km concentrations of GPKRIA peptide substrate in presence of fixed concentration of SAM by SAHH coupled fluorescence assay.
The species entered for test [5] is Homo sapiens. Put plainly: Selectivity for NTMT1 (unknown origin) over SAHH (unknown origin).
The target of test [6] is T1, N-terminal Xaa-Pro-Lys N-methyltransferase 1 (Homo sapiens). As to the kind of experiment: Sow and tight binding inhibition of NTMT1 (unknown origin) assessed as [enzyme]/Ki(app) ratio pre-incubated up to 120 mins before GPKRIA peptide substrate addition by SAHH coupled fluorescence assay based Morrison's quadratic equation analysis.
The species named for test [7] is Homo sapiens. As to the kind of experiment: Selectivity for NTMT1 (unknown origin) over Trypanosoma brucei PRMT7.
For test [8], the species on record is Homo sapiens. Put plainly: Selectivity for NTMT1 (unknown origin) over PRMT1 (unknown origin).
Test [9] is filed under the species Homo sapiens. Put plainly: Selectivity for NTMT1 (unknown origin) over PRMT3 (unknown origin).
Test [10] is filed under the species Homo sapiens. Put plainly: Selectivity for NTMT1 (unknown origin) over NNMT (unknown origin).
For test [11], the species on record is Homo sapiens. As to the kind of experiment: Selectivity for NTMT1 (unknown origin) over SETD7 (unknown origin).
Test [12] is filed under the species Homo sapiens. As to the kind of experiment: Selectivity for NTMT1 (unknown origin) over G9a (unknown origin).

Calls of active or inactive are those of the source. The rule behind the calls is not given here.

Turning to `CC[C@H](C)[C@H](NC(=O)[C@H](CCCNC(=N)N)NC(=O)[C@H](CCCCN)NC(=O)[C@@H]1CCCN1C(=O)CNCCCN(CC[C@H](N)C(=O)O)C[C@H]1O[C@@H](n2cnc3c(N)ncnc32)[C@H](O)[C@@H]1O)C(=O)N[C@@H](C)C(N)=O`, the inhibition result in [1] was “Active”. Besides, the Activity in test [2] amounted to 20%; in test [3], 10%.
For the compound `CC[C@H](C)[C@H](NC(=O)[C@H](CCCNC(=N)N)NC(=O)[C@H](CCCCN)NC(=O)[C@@H]1CCCN1C(=O)CNCCCCN(CC[C@H](N)C(=O)O)C[C@H]1O[C@@H](n2cnc3c(N)ncnc32)[C@H](O)[C@@H]1O)C(=O)N[C@@H](C)C(N)=O`, the inhibition entry in test [4] and in [1] was “Active” each time. The Selectivity ratio in test [5], in test [7], in test [8], in test [9], in test [10] and in [11] was over 3000 in each case. In addition, the Selectivity ratio in [12] was over 3000. Further, the Ratio in [6] was over 100. Besides, the values for the Activity in test [2] and in test [3] were 20% and 10%, respectively.
